From US20020198219A1, “2-pyridinamine compositions and related methods” (priority 2000, published 2002)

Tests used:
[1] = system: differentiated P19 neurons; assay: Differentiated P19 excitotoxicity assay (glutamate/glycine-induced death, Alamar Blue); format: cell-based, murine; details: read-out: IC50 for Neuroprotection [lower-upper 95% C.I.]; 3 mM glutamate + 1 mM glycine; mean of three separate curves
[2] = target: CAMKII; details: read-out: Potency, CAMKII; from the literature; cited from earlier work

O=S(=O)(NCCNC/C=C/c1ccc(Br)cc1)c1cccc2cnccc12
IC50 [1]: > 10 µM
Ki [2]: 30 µM
